Measurements: US20200362026A1 (INSTITUTE FOR RESEARCH IN BIOMEDICINE, published 2020)

Amino acid sequences for entries named in this document (tags omitted). Residues count along the entry.
UniProt P04141, 18-144 limits assumed: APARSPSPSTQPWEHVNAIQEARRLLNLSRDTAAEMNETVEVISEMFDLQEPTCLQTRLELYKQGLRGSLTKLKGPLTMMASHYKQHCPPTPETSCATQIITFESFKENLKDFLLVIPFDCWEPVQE

Key:
[1] = target: T1, human GM-CSF (granulocyte macrophage-colony stimulating factor) (human, UniProt P04141 18-144); assay: cell-based or functional assay
[2] = target: T1, human GM-CSF (granulocyte …); assay: cell-based or functional assay; remark: listed apart in the source
[3] = target: T1, human GM-CSF (granulocyte …); assay: ELISA on human GM-CSF
Description: All antibodies were recombinantly produced as IgG1 by transient transfection of HEK 293 Freestyle Cells (Invitrogen) using polyethylenimine (PEI). The antibodies were then tested for binding to human GM-CSF by ELISA. […] The EC50 values (ng/ml) were determined by ELISA and calculated for every sample by nonlinear regression analysis using GraphPad Prism 5 software.

[4] = target: T1, human GM-CSF (granulocyte …); assay: SPR (ProteOn), mAb captured on protein A, GM-CSF as analyte, Langmuir fit
Description: The kinetics of binding was determined by surface plasmon resonance (SPR). […] HEPES buffered saline (HBS) (10 mM HEPES, pH 7.4, 150 mM NaCl, 3 mM EDTA, 0.005% surfactant Tween-20) was used as running buffer. All injections were made at flow rate of 100 µl/min. […] Injection time and dissociation time were 120 s and 600 s, respectively. Each binding interaction of mAbs with GM-CSF was assessed using a ProteON XPR36 instrument (Biorad) and data processed with ProteOn Manager Software. Ka, Kd and KD were calculated applying the Langmuir fit model.

[5] = target: T2, FcγRIIb (UniProt P31994 43-310, limits assumed); assay: flow cytometry, TZM-bl cells expressing FcγRIIb, mAb alone (w/o GM-CSF)
T2 construct: whole, on cells; also called FcgRIIb; Fcγ receptor IIb
T2 sequence (looked up): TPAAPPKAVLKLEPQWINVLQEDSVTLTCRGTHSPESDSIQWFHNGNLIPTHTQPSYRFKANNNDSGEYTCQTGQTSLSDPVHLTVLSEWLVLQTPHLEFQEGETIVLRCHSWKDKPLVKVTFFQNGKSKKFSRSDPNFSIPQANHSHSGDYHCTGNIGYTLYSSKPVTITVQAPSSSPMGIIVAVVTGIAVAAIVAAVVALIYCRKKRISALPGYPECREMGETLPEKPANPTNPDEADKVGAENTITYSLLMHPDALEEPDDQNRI
Description: (§1) Expression of specific FcγRs was assessed by staining TZM-b1 cells with FITC-conjugated anti-CD64 (anti-FcγRI), anti-CD32 (anti-FcγRIIa and anti-FcγRIIb) and anti-CD16 (anti-FcγRIIIa) antibodies (all from BD Pharmingen). Untrasfected and transfected TZM-b1 cells were washed with staining buffer (PBS with 10% Fetal Bovine Serum and 2 mM EDTA) and seeded in 96-well-plates at a density of 50,000 cells per well. […] The LALA versions of all antibodies and a mAb with a different specificity were included as controls. Samples were incubated at 37° C. for 30 min to allow the formation of immune complexes and then cooled down to 4° C. before adding them to TZM-b1 cells for 30 min. Cells were washed twice and stained with anti-human IgG Fcγ fragment specific F(ab′)2 fragment (Jackson ImmunoResearch). Samples were analyzed on BD FACSCanto (BD Biosciences) and median intensity fluorescence was analyzed and compared between samples.
(§2) To address the engagement of Fcγ receptors, immune complexes formed between GM-CSF and multispecific antibodies were tested for their capacity to bind to TZM-b1 cells expressing FcγRIIa and FcγRIIb receptors. Multispecific antibodies were mixed with 0.05 μg/ml of GM-CSF, or staining buffer. […] Samples were analyzed on BD FACSCanto (BD Biosciences) and median intensity fluorescence was analyzed and compared between samples.

[6] = target: T1, human GM-CSF (granulocyte …); assay: ELISA on GM-CSF
[7] = target: T3, FcγRIIa (UniProt P12318 34-317, limits assumed); assay: flow cytometry, TZM-bl cells expressing FcγRIIa, immune complex with low GM-CSF
T3 construct: whole, on cells; also called FcgRIIa; Fcγ receptor IIa
T3 sequence (looked up): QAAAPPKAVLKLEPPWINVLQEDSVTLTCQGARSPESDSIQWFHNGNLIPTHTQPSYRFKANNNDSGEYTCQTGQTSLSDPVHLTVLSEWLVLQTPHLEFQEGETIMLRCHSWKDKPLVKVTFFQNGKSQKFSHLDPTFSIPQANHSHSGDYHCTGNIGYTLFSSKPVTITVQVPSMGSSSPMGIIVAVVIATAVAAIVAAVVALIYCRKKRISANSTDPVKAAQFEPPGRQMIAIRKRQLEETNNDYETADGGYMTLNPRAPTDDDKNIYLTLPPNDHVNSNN
Description: as §1, §2

[8] = target: T2, FcγRIIb; assay: flow cytometry, TZM-bl cells expressing FcγRIIb, immune complex with low GM-CSF
Description: as §1, §2

[9] = target: T2, FcγRIIb; assay: flow cytometry, TZM-bl cells expressing FcγRIIb, immune complex with high GM-CSF
Description: as §1, §2

[10] = target: T3, FcγRIIa; assay: flow cytometry, TZM-bl cells expressing FcγRIIa, mAb alone (w/o GM-CSF)
Description: as §1, §2

[11] = target: T3, FcγRIIa; assay: flow cytometry, TZM-bl cells expressing FcγRIIa, immune complex with high GM-CSF
Description: (§3) To address the engagement of Fcγ receptors, immune complexes formed between GM-CSF and multispecific antibodies were tested for their capacity to bind to TZM-b1 cells expressing FcγRIIa and FcγRIIb receptors. Multispecific antibodies were mixed with 0.05 μg/ml of GM-CSF, or staining buffer. Samples were incubated at 37° C. for 30 min to allow the formation of immune complexes and then cooled down to 4° C. before adding them to TZM-b1 cells for 30 minutes. Cells were washed twice and stained with anti-human IgG Fcγ fragment specific F(ab′)2 fragment. Samples were analyzed on BD FACSCanto (BD Biosciences) and median intensity fluorescence was analyzed and compared between samples.

[12] = target: T2, FcγRIIb; assay: flow cytometry, TZM-bl FcγRIIb cells; average ratio of binding in presence and in absence of GM-CSF
Description: as §1, §2

[13] = target: T3, FcγRIIa; assay: flow cytometry, TZM-bl FcγRIIa cells; average ratio of binding in presence and in absence of GM-CSF
Description: as §3

B1: MOR103 (antibody, V domains shown)
VH: QVQLVESGGGLVQPGGSLRLSCAASGFTFSSYWMNWVRQAPGKGLEWVSGIENKYAGGATYYAASVKGRFTISRDNSKNTLYLQMNSLRAEDTAVYYCARGFGTDFWGQGTLVTVSS
VL: DIELTQPPSVSVAPGQTARISCSGDSIGKKYAYWYQQKPGQAPVLVIYKKRPSGIPERFSGSNSGNTATLTISGTQAEDEADYYCSAWGDKGMVFGGGTKLTVL
**Q.** B1 was tested. Which “fold greater concentration than Ts1GC2a, less stringent conditions” value [1] did it give?
**A.** 100 fold

**Q.** And the “IC90 less stringent conditions (50 pg/ml GM-CSF, 1,000 TF-1/well)” value (from here on “IC90 less stringent conditions”) [2]?
**A.** 24.9 ng/mL

**Q.** And the “IC90 more stringent conditions (500 pg/ml GM-CSF, 1,000 TF-1/well)” value (“IC90 more stringent conditions” for short) [2]?
**A.** 172 ng/mL

**Q.** What about the “IC90 stringent conditions (50 pg/ml GM-CSF, 10,000 TF-1/well)” value (shortened to “IC90 stringent conditions”) [2] of the same binder?
**A.** 139 ng/mL

**Q.** What about the “IC90 very stringent conditions (500 pg/ml GM-CSF, 10,000 TF-1/well)” value (shortened to “IC90 very stringent conditions”) [2] of the same binder?
**A.** 1490 ng/mL

**Q.** And the EC50 [3]?
**A.** 90 ng/mL

**Q.** What about the Kd [4] of the same binder?
**A.** 0.19 nM

**Q.** What about the koff [4] of the same binder?
**A.** 5.1e-05 s⁻¹

**Q.** What about the kon [4] of the same binder?
**A.** 270000 M⁻¹ s⁻¹

B2: Ts2GC2b trispecific antibody (antibody, human IgG1, kappa)
heavy: not shown
light: GVQLVQSGGGLVQPGGSLRLSCAASGFTVSTNYMSWVRQAPGKGLEWVSILYAGGVTRYADSVKTRFTISRDNSKNTLFLQMNALSAEDTAIYYCAKHYDSGYSTIDHFDSWGQGTLVTVSSGGGGSGGGGSGGGGSDIQMTQSPDSVAVSLGERATINCKSSQSVFYTSKNKNYLAWFQQKPGQPPKLLIYWASTRESGVPDRFSGSGSGTDFTLTISSLRPEDVAVYYCQQYYSTPFTFGPGTKVDIKGGGGSEIVLTQSPGTLSLSPGETAILSCRASQSVSSSLLAWYQQKPGQAPRLLIYGASNRATGIRGRFSGSGSGTDFTLTISRLEPEDFVLYYCQHYGSRVTFGQGTKLEIKRTVAAPSVFIFPPSDEQLKSGTASVVCLLNNFYPREAKVQWKVDNALQSGNSQESVTEQDSKDSTYSLSSTLTLSKADYEKHKVYACEVTHQGLSSPVTKSFNRGEC
**Q.** With B2 as the binder, how does the MFI [5] read?
**A.** 168000 MFI

**Q.** What about the “IC90 less stringent conditions” value [2] of the same binder?
**A.** 0.526 ng/mL

**Q.** And the “IC90 more stringent conditions” value [2]?
**A.** 4.71 ng/mL

**Q.** What about the “IC90 stringent conditions” value [2] of the same binder?
**A.** 0.561 ng/mL

**Q.** And the “IC90 very stringent conditions” value [2]?
**A.** 5.95 ng/mL

**Q.** And the EC50 [6]?
**A.** 18.4 ng/mL

**Q.** And the MFI [7]?
**A.** 136000 MFI

**Q.** What about the MFI [8] of the same binder?
**A.** 852000 MFI

**Q.** What about the MFI [9] of the same binder?
**A.** 1.26e+06 MFI

**Q.** What about the MFI [10] of the same binder?
**A.** 11300 MFI

**Q.** And the MFI [11]?
**A.** 726000 MFI

**Q.** And the “Average RATIO FcgRIIb” value [12]?
**A.** 6.29 ratio

**Q.** What about the “Average RATIO FcgRIIa” value [13] of the same binder?
**A.** 38 ratio

B3: Bs2GC1c bispecific antibody (bispecific antibody, human IgG1, kappa)
heavy: not shown
light: GVQLVQSGGGLVQPGGSLRLSCAASGFTVSTNYMSWVRQAPGKGLEWVSILYAGGVTRYADSVKTRFTISRDNSKNTLFLQMNALSAEDTAIYYCAKHYDSGYSTIDHFDSWGQGTLVTVSSGGGGSGGGGSGGGGSDIQMTQSPDSVAVSLGERATINCKSSQSVFYTSKNKNYLAWFQQKPGQPPKLLIYWASTRESGVPDRFSGSGSGTDFTLTISSLRPEDVAVYYCQQYYSTPFTFGPGTKVDIKGGGGSEIVLTQSPGTLSLSPGETAILSCRASQSVSSSLLAWYQQKPGQAPRLLIYGASNRATGIRGRFSGSGSGTDFTLTISRLEPEDFVLYYCQHYGSRVTFGQGTKLEIKRTVAAPSVFIFPPSDEQLKSGTASVVCLLNNFYPREAKVQWKVDNALQSGNSQESVTEQDSKDSTYSLSSTLTLSKADYEKHKVYACEVTHQGLSSPVTKSFNRGEC
**Q.** How did the MFI [5] turn out when B3 was run?
**A.** 108000 MFI

**Q.** And the “IC90 less stringent conditions” value [2]?
**A.** 0.853 ng/mL

**Q.** And the “IC90 more stringent conditions” value [2]?
**A.** 4.5 ng/mL

**Q.** What about the “IC90 stringent conditions” value [2] of the same binder?
**A.** 1.24 ng/mL

**Q.** What about the “IC90 very stringent conditions” value [2] of the same binder?
**A.** 6.23 ng/mL

**Q.** What about the EC50 [6] of the same binder?
**A.** 12 ng/mL

**Q.** What about the MFI [7] of the same binder?
**A.** 5000 MFI

**Q.** What about the MFI [8] of the same binder?
**A.** 416000 MFI

**Q.** What about the MFI [9] of the same binder?
**A.** 943000 MFI

**Q.** What about the MFI [10] of the same binder?
**A.** 1590 MFI

**Q.** What about the MFI [11] of the same binder?
**A.** 427000 MFI

**Q.** And the “Average RATIO FcgRIIb” value [12]?
**A.** 6.3 ratio

**Q.** What about the “Average RATIO FcgRIIa” value [13] of the same binder?
**A.** 136 ratio
